Molecular target: Delta-type opioid receptor (Homo sapiens, UniProt P41143)
Test: Cells were plated in 24 well plates at a density of 0.2-0.3*10^6 cells/well and washed with assay buffer containing 50 mM Tris.HCl and 5 mM MgCl2 (pH 7.4). […] Incubations were carried out for two hours at room temperature using triplicate wells at each concentration. […] Binding data assays were analyzed using GraphPad Prism 4.0 and IC50 is generated by non-linear regression from dose-response curves. Ki values were calculated using the Cheng Prusoff equation using the Kd values from saturation isotherms as follows: Ki=IC50/(1+[Ligand]/Kd).
Type: cell-based

The chains behind the UniProt entries cited, without tags or fusion partners.
UniProt P41143, whole entry: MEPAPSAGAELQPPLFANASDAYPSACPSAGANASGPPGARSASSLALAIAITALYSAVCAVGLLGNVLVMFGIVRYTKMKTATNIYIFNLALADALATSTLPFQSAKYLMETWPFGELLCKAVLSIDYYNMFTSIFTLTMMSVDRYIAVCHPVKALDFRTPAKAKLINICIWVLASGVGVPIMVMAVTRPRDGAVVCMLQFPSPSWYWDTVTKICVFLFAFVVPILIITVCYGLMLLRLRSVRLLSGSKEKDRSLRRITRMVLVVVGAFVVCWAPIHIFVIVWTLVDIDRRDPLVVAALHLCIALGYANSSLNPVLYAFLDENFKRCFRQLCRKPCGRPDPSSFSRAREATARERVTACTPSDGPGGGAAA

Structure (SMILES): COCCOCCOCCOCCOCCOCCOCCOCCOCCO[C@H]1CC[C@@]2(O)[C@H]3Cc4ccc(O)c5c4[C@@]2(CCN3CC2CCC2)[C@H]1O5
- Ki: 158 nM
